Measurements reported in patent US20230059009A1, “INHIBITORS OF LIN28 AND METHODS OF USE THEREOF” (The Regents of the University of California, priority 2019, published 2023).

Tested on: SW480
Assay: Cell viability, CTG, SW480
Assay type: cell-based
Details: SW480 (Colon), Cetuximab
Protocol: To measure cell viability, cell titer glow (CTG, Promega CellTiter-Glo 2.0 Assay) and MTT assays (SigmaAldrich, Cell Proliferation Kit I) were performed. Briefly, cells were serum starved overnight prior to seeding in 96-well plates. Following 24 h incubation, cells were treated with increasing concentrations of JGJ compounds for 96 hr. At assay read-out, CellTiter-Glo reagent was added and luminescence was measured after 10-minutes incubation at room temperature. For the MTT assay, MTT labeling reagent was added and incubated for 4 h. Subsequently, medium was removed and 50 μL DMSO was added to solubilize the crystals, and absorbance was measured at 570 nm. Cell viability was calculated as (Sample-Background)/(Control-Background). Current standard of care drugs, Enzalutamide, Palbociclib and Cetuximab were used as comparative controls.

IC50: 40 µg/mL
Substance: Cetuximab
